Values quoted from earlier work as cited in PMC6408977 (Journal of controlled release : official journal of the …, 2019).

Conditions: read-out: KD of HSA to DMPC lipid vesicles; cited from earlier work

In the case of HSA: human serum albumin, the Kd is listed as 6.7 mM.
